Drawing on ChEMBL document CHEMBL1127847, “Cyclic GMP phosphodiesterase inhibitors. 2. Requirement of 6-substitution of quinazoline derivatives for potent and selective inhibitory activity” (J Med Chem, 1994), this text covers IC50 for one compound.

pIC50: −log10 of the molar value.

In the experiment the target is T1, Phosphodiesterase 3A (Sus scrofa, UniProt Q9XSW7).
T1 sequence (Q9XSW7 whole entry): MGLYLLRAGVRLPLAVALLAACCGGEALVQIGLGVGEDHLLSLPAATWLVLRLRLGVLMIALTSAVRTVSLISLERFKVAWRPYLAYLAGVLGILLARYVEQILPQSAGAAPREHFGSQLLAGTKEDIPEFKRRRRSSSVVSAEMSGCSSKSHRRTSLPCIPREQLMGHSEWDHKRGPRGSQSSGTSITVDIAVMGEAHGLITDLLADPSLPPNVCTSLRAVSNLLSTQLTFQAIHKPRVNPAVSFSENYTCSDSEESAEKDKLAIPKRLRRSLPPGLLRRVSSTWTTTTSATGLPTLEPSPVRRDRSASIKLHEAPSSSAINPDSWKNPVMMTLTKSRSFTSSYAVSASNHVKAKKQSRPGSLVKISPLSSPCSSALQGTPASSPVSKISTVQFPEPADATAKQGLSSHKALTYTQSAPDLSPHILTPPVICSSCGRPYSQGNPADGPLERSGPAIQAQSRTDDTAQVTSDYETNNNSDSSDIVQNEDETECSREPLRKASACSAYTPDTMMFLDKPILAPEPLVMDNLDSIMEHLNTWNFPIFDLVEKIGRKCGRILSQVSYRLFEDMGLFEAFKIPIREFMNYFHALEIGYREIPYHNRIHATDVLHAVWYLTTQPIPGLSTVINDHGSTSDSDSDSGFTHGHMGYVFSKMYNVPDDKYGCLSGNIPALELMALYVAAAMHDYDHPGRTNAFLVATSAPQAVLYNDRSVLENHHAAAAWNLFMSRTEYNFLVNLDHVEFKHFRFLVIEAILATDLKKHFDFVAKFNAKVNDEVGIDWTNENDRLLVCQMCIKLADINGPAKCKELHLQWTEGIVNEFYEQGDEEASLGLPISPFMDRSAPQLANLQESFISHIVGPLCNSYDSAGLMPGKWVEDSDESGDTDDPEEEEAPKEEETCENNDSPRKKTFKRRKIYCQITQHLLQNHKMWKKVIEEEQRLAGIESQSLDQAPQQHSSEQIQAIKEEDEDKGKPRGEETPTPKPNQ
Description: Inhibition of cGMP-inhibited PDE 3 from porcine aorta.

Consider `COc1cc2c(NCc3ccc4c(c3)OCO4)ncnc2c(OC)c1OC`, for which the pIC50 is 6.44.

The pIC50 is the negative decadic logarithm of the IC50, by convention in mol/L.
